Assay outcomes from PubChem.
Shown are actives, neighbours in structure and some others; about 1.3% of the full set was active somewhere.
SR-BI DiI inh: blocks mouse SR-BI lipid uptake from DiI-HDL | AID 488896 | inhibition, % at 12.5 µM | ldlA[mSR-BI] CHO cells, DiI-HDL uptake fluorescence, 3 h | actives 0.96% (n = 320,000);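 active = mean replicate inhibition of at least 70% and a set share of replicates each scoring 70 or more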
UUG fidelity: modulators of start codon recognition fidelity in yeast; S. cerevisiae UUG-firefly luciferase reporter, luminescence/redox ratio; activity score, % at 18.7 µM; hit rate 0.13% among 350,000; AID 602363;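 active = replicate mean at a twofold rise or more, about +100% in these data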;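 note: firefly luciferase made from a UUG start codon reports start codon fidelity; reporter light over untreated wells divided by growth signal over untreated wells; some hits fall short of that in this replicate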
SR-BI uptake up: enhances SR-BI lipid uptake from DiI-HDL. AID 504775. activation, % at 12.5 µM. actives 0.096% (n = 320,000). CHO ldlA[mSR-BI] cells, DiI-HDL uptake fluorescence, 3 h; 100 = double the neutral-control signal;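 active = mean replicate activation of at least 60% and every replicate at or above 60%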
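Test system: SR-BI-overexpressing, LDLR-lacking CHO cells; Also added: labelled HDL, 10 µg/mL; Measured by: bottom-read cell fluorescence after medium removal, ex 550/em 595 nm; Timing: 3 h uptake period with compound, 37 °C; Buffer or medium: F12, 0.5% BSA, 25 mM HEPES; Doses: single compound concentration, delivered by pin transfer.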
GSIS activator: GLuc luminescence reporter in INS-1E cells, primary screen for activators of glucose-dependent secretion of insulin | activation, % at 16.6 µM | INS-1E GLuc reporter insulin secretion, 2-3 h | actives 0.61% (n = 370,000) | AID 743287;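 active = lowest replicate activation of at least 40%, so every replicate reaches that level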
Each line names hits and unclear results; the compound was inactive in the other large screens.

COc1ccc(C(=O)Nc2ccc(Nc3ccccc3)cc2)cc1OC	SR-BI DiI inh 79.1 (no result: GSIS activator)
COc1ccc(NC(=O)C(F)(F)F)cc1OC	SR-BI DiI inh 77.8
Cc1ccc(C(=O)Nc2ccc(Nc3ccccc3)cc2)cc1Br	none (no result: SR-BI DiI inh, SR-BI uptake up, GSIS activator)
CC(C)[C@@H]1C(=O)N[C@@H](c2ccc3c(c2)OCO3)CC=CC[C@@H](C)Oc2ccccc2C(=O)N1C (mixture of isomers)	none (no result: SR-BI DiI inh, UUG fidelity, SR-BI uptake up)
COc1ccc(C(=O)Nc2ccc(NS(=O)(=O)c3ccccc3)cc2)cc1OC	SR-BI DiI inh 74.4
COc1ccc(NC(=O)c2csc(C)c2)cc1OC	GSIS activator 56.7
COc1ccc(C(=O)Nc2ccc(OC)c(OC)c2)cc1	none
COc1ccc(NC(=O)c2ccc(CN3CCN(c4ccccc4)CC3)cc2)cc1OC	SR-BI DiI inh 76.1 (no result: GSIS activator)
COc1ccc(C(=O)NCC(=O)N/N=C/C=C/c2ccccc2)cc1OC	SR-BI DiI inh 83.0 (no result: UUG fidelity)
COc1ccc(C(=O)Nc2ccc(S(=O)(=O)Nc3ncccn3)cc2)cc1OC	none (no result: UUG fidelity)
C[C@H](CO)N1C[C@H](C)[C@@H](CN(C)Cc2ccc(Cl)c(Cl)c2)OCc2ccccc2-c2c(n(C)c3ccccc23)C1=O	none (no result: SR-BI DiI inh, UUG fidelity, SR-BI uptake up)
C[C@@H]1CN([C@@H](C)CO)C(=O)c2cc(C#CCN(C)C)cnc2O[C@H]1CN(C)C(=O)CN1CCOCC1	none (no result: SR-BI DiI inh, SR-BI uptake up)
CCOc1ccccc1CNC(c1ccccc1)c1ccccc1	GSIS activator 88.0
O=C(/C=C/NNC(=O)c1ccc(Cl)cc1)c1ccccc1	SR-BI DiI inh 111.5 (no result: UUG fidelity)
COc1ccc(C(=O)C=CNNC(=O)c2ccc(Cl)cc2)cc1	SR-BI DiI inh 95.5
COc1ccc(C(=O)NN/C=C/C(=O)c2ccc(Br)cc2)cc1	none (no result: SR-BI DiI inh, SR-BI uptake up)
O=C(/C=C/NNC(=O)c1ccccc1)c1ccc(Br)cc1	SR-BI DiI inh 118.1 (no result: GSIS activator)
O=C(/C=C/NNC(=O)c1cccc(Br)c1)c1cccc(Br)c1	none (no result: GSIS activator)
Cc1ccc(S(=O)(=O)Nc2ccc3c(c2)C(=O)N([C@@H](C)CO)C[C@@H](C)[C@@H](CN(C)C(=O)Nc2ccc4c(c2)OCO4)OCCCC[C@@H](C)O3)cc1	none (no result: SR-BI DiI inh, SR-BI uptake up)
C[C@@H]1CN(C)C(=O)Cc2ccccc2O[C@H]1CN(C)C	none (no result: SR-BI DiI inh, UUG fidelity, SR-BI uptake up)
COCC(=O)Nc1ccc2c(c1)[C@@H]1C[C@@H](CC(=O)NCc3ccc(Cl)cc3)O[C@@H](CO)[C@@H]1O2	none (no result: SR-BI DiI inh, SR-BI uptake up)
O=C(NC[C@H]1[C@@H](c2ccccc2)[C@@H](CO)N1Cc1ccccn1)NC1CCCC1	none (no result: SR-BI DiI inh, UUG fidelity, SR-BI uptake up)
COc1ccc(S(=O)(=O)N2CCCCC2)cc1NC(=O)C1CCCC1	GSIS activator 52.4
CCOc1ccc(S(=O)(=O)N2CCCCC2)cc1NC(=O)C1CCC1	none
O=C(/C=C/c1ccc(F)cc1)Nc1cccc(S(=O)(=O)N2CCOCC2)c1	SR-BI DiI inh 74.4
COc1ccc(/C=C/C(=O)Nc2cccc(S(=O)(=O)N3CCCC3)c2)cc1OC	SR-BI DiI inh 79.7
COc1ccc(CC(=O)Nc2cccc(S(=O)(=O)N3CCCC3)c2)cc1OC	none (no result: GSIS activator)
COc1ccccc1/C=C/C(=O)Nc1cccc(C(C)=O)c1	SR-BI DiI inh 75.9 (no result: UUG fidelity)
COc1cccc(/C=C/C(=O)Nc2cccc(C(C)=O)c2)c1OC	none (no result: SR-BI DiI inh, UUG fidelity, SR-BI uptake up)
CCOc1ccccc1N1CCN(c2nc3ccccc3nc2C(C#N)C(=O)OC)CC1 (stereo unspecified)	SR-BI DiI inh 75.2 (no result: GSIS activator)
COc1cc2c(cc1OC)-c1cc(Nc3ccccc3)nc(=O)n1CC2	none (no result: GSIS activator)
COc1cc2c(cc1OC)-c1cc(N3CCCc4ccccc43)nc(=O)n1CC2	none
COc1cc2c(cc1OC)-c1cc(Nc3ccccc3Br)nc(=O)n1CC2	GSIS activator 72.7
COc1cc2c(cc1OC)-c1cc(N3CCc4ccccc43)nc(=O)n1CC2	GSIS activator 42.8 (no result: UUG fidelity)
CCCn1c2ccccc2c2cn[nH]c(=O)c21	GSIS activator 47.2
C[C@H]1CN(C)C(=O)Cc2cc(N(C)C)ccc2O[C@H]1CN(C)C	none (no result: SR-BI DiI inh, UUG fidelity, SR-BI uptake up)
O=C(NCc1ccco1)C1CCN(S(=O)(=O)c2ccccc2C(F)(F)F)CC1	none (no result: SR-BI uptake up)
O=C(NNC(=O)c1ccccc1O)c1ccc(Cl)c(S(=O)(=O)N2CCCCC2)c1	SR-BI DiI inh 102.9
O=C(NNC(=O)C1CCN(S(=O)(=O)c2ccccc2)CC1)c1ccccc1O	SR-BI DiI inh 83.1
O=C(NNC(=O)c1cccs1)c1ccc(Cl)c(S(=O)(=O)N2CCCC2)c1	none
O=C(NC1CCCCCC1)C1CCN(S(=O)(=O)c2c(Cl)cccc2Cl)CC1	none
O=C(NNC(=O)C1CCN(S(=O)(=O)c2ccccc2C(F)(F)F)CC1)c1ccccc1O	SR-BI DiI inh 100.1
O=C(NNC(=O)C1CCN(S(=O)(=O)c2c(Cl)cccc2Cl)CC1)c1ccccc1O	SR-BI DiI inh 102.9
CCCNC(=O)N1CC2(CN(C(=O)CCC)C2)c2c(n(C)c3cc(OC)ccc23)[C@H]1CO	none (no result: SR-BI DiI inh, UUG fidelity, SR-BI uptake up)
N#Cc1cnn2c(C(F)(F)F)cc(-c3ccccc3)nc12	GSIS activator 44.1
COC(=O)c1cnn2c(C(F)(F)F)cc(-c3ccccc3)nc12	none (no result: GSIS activator)
O=C1/C(=C/c2cccs2)NC(=S)N1C1CC1	GSIS activator 47.0
CCOC(=O)C1=C(Nc2ccccc2)CC(C)(O)C(C(=O)OCC)C1c1ccccc1 (stereo unspecified)	SR-BI uptake up 64.2
CCCCOc1ccc(SCCCN2CCOCC2)cc1	GSIS activator 57.8 (no result: UUG fidelity)
Cc1ccc(SCCCCN2CCOCC2)cc1	none
O=C(c1ccc2c(c1)OCO2)N1CCc2ccccc21	none (no result: SR-BI DiI inh, UUG fidelity, SR-BI uptake up)
O=C(c1ccc2c(c1)OCO2)N1CCc2ccccc2C1	GSIS activator 81.2
Cc1ccc2c(c1)CCCN2C(=O)c1ccc2c(c1)OCO2	GSIS activator 53.7 (no result: UUG fidelity)
O=C(c1cccc(F)c1)N1CCCc2ccccc21	GSIS activator 84.1
CCS(=O)(=O)Nc1ccc2c(c1)C(=O)N(C)[C@H]1CC[C@H](CC(=O)Nc3ccc(Cl)cc3)O[C@@H]1CO2	none (no result: SR-BI DiI inh, SR-BI uptake up)
O=C(NC1CCCCCC1)C1CCCN(c2ncccn2)C1 (stereo unspecified)	GSIS activator 64.8 (no result: SR-BI DiI inh, SR-BI uptake up)
COc1ccc2c(c1)CCc1sc(NC(=O)c3ccc(C)cc3)nc1-2	none (no result: GSIS activator)
COc1ccc2c(c1)-c1nc(NC(=O)c3cccs3)sc1CC2	SR-BI DiI inh 78.6 (no result: UUG fidelity, GSIS activator)
COc1ccc2c(c1)-c1nc(NC(=O)c3ccco3)sc1CC2	SR-BI DiI inh 77.6
COc1ccc2c(c1)CCc1sc(NC(=O)c3ccco3)nc1-2	none (no result: GSIS activator)
CCOC(=O)c1c(C)n(CCO)c2ccc(O)cc12	none
CCOCCn1c(C)c(C(=O)OCC)c2cc(O)c3ccccc3c21	SR-BI DiI inh 72.6
CN(Cc1ccccc1NCC(=O)Nc1ccccc1C#N)C1CCCCC1	none
N#Cc1ccccc1NC(=O)CNc1ccccc1N1CCCCC1	SR-BI DiI inh 80.6 (no result: GSIS activator)
O=C(C[C@@H]1CC[C@@H]2[C@H](COC[C@@H](O)CN2C(=O)c2ccc3c(c2)OCO3)O1)NCCN1CCCCC1	none (no result: SR-BI DiI inh, UUG fidelity, SR-BI uptake up)
Cc1ccc2nc(C(Cl)(Cl)Cl)nc(N/N=C/c3ccncc3)c2c1	none (no result: UUG fidelity)
Cc1ccc2nc(C(Cl)(Cl)Cl)nc(N/N=C/c3ccc([N+](=O)[O-])cc3)c2c1	SR-BI DiI inh 90.7
CN(C)C(=O)c1cccc(-c2ccc(C3[C@@H]4CN(S(=O)(=O)c5ccccc5)C[C@H]3N4)cc2)c1 (stereo partly specified)	none (no result: SR-BI DiI inh, UUG fidelity, SR-BI uptake up)
